Data published in ChEMBL document CHEMBL2057200, “Design and synthesis of potent antagonists containing rigid spirocyclic privileged structures for the CGRP receptor” (Bioorg Med Chem Lett, 2012).

Species on record: Homo sapiens
Assay: Inhibition of CGRP-induced dilation in potassium chloride pre-contracted ex vivo migraine model of human intracranial artery rings
Assay type: functional, tissue-based

SMILES	inhibition
O=C1Nc2ccccc2C2(CCN(C(=O)N[C@H](Cc3csc4ccccc34)C(=O)N3CCC(N4CCCCC4)CC3)CC2)N1	Dose-dependent effect
O=C(N[C@H](Cc1csc2ccccc12)C(=O)N1CCC(N2CCCCC2)CC1)N1CCC2(CC1)N=C(c1ccccc1)NC2=O	Dose-dependent effect
